## AlphaSeq binding of Ab-14 light chain variants to a spike HR2 peptide

Values reported by Li et al. 2023, doi:10.1038/s41467-023-39022-2 (FLAb copy).

All variants were tested on one target, the spike HR2 peptide PDVDLGDISGINAS (SARS-CoV-2).

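The starting antibody came from a phage panning campaign against this peptide. Designed CDR sequences, proposed from the first random library and measured here. Group labels follow the data file (Ctrl: baseline library sampled from a position-specific scoring matrix, with some repeated check sequences; Rand: our label for a block that the file lists under HC and that is probably the random mutants of the ten best first-round binders; En: ensemble of fine-tuned language models; GP: Gaussian process model; GPLM: also part of the Gaussian process libraries; HC: hill climbing; Gen: genetic algorithm; Gibbs: Gibbs sampling; a sequence that several methods proposed may carry one label only). AlphaSeq pools MATa yeast showing the antibodies with MATalpha yeast showing the peptide. After mating in shaken culture at 30 °C for 16 h, diploids were selected and their barcode pairs sequenced. The ratio of observed to expected reads was calibrated, replicate by replicate, on BCL2-family standards whose Kd was known from biolayer interferometry. The assay was run in six technical replicates.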

Parent scFv Ab-14: VH joined to VL by a 15-residue (Gly4Ser)3 linker. Changes lie in the light chain CDRs alone.
VH: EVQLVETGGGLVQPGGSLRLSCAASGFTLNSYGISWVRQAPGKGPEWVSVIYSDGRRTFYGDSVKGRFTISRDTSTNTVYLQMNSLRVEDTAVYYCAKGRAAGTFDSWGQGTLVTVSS
VL: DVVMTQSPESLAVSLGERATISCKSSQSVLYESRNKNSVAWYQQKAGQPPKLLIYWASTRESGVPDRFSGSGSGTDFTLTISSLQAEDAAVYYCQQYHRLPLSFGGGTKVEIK

Variants are written as CDR1, CDR2 and CDR3 of the light chain (limits as in the source). Parent: KSSQSVLYESRNKNSVA, WASTRES, QQYHRLPLS. Affinities are written as log10 Kd with Kd in nM; a lower number is a better binder. A mean of the replicates is given; it leaves out those without a signal. A pair that was not seen in any replicate is written "not detected"; this usually means weak binding, but a binder can also be missed. The range of this assay differs from that of the first round, and the authors advise against merging the two. In the paper, a design with two or fewer of six values counts as a poor binder. Of ten entries with the parent sequence, four were seen in most replicates (averages 0.34 to 2.37), three in one and three in none, so single entries are noisy. Empty control strains, which show no peptide, gave a signal in 4% of pairings with all light chain designs; the median was 2.64 and 95% of these signals were weaker than 1.59. No background was subtracted.

CDR-L1 | CDR-L2 | CDR-L3 | group | mean, log10 nM | replicates with signal
ALTAQNLQNMDNLNSIA | EQNQTQE | QQYFRLPFA | En_Gibbs | 0.87 | 6 of 6
KMAMALSPEFGTYHGVA | DADHRMH | QQYNRLPLS | En_Gibbs | 0.55 | 6 of 6
KLSQWWLYESRMKNNVA | NASTRED | QQYHRLPLS | GP_Gibbs | 0.52 | 6 of 6
KSSQSVLYESRNKNSIA | GASARES | QQYHRLPLS | Ctrl | 2.63 | 5 of 6
KVQMQKLYWSRNKNSVA | EASTRES | QQYHRLPLS | GP_Gibbs | 0.01 | 6 of 6
MISQLMNMGQFAINSVA | QATIRNK | QQYDRLPLM | En_Gen | 2.24 | 4 of 6
NLGGLDVNSTYEMDAVA | DVSEVGE | QHYSRLPLT | En_Gibbs | 3.30 | 3 of 6
KSSQSVLMESRNMNSVA | DASTRES | QQYHRLPLS | GP_HC | 0.36 | 6 of 6
KSSWSHLYESRNKNSVA | DASTRES | QQYHRLPLS | GP_HC | -0.11 | 6 of 6
AISFEMMSPHNHSNAVA | SESKRCS | QQYFTLPLS | En_Gibbs | 1.46 | 1 of 6
MISQLFNMGQFAINSVA | QASTRNE | QQYDRLPLM | En_Gen | 1.23 | 5 of 6
QIYQAMHTLSQMKDNVA | DVNERGS | QQYFRLPLS | En_Gen | 0.18 | 6 of 6
KSSISVLYESRNKNSIA | WASTRYS | QQYHRLPLS | Ctrl | not detected | 0 of 6
KFSNSVLYESRTKNSVA | NLSTRES | QQYHRLPLS | Rand | 0.32 | 6 of 6
KSSDSVDYEDRNSNSVA | NASQRLW | QQYHRLPLS | GP_Gibbs | 0.87 | 6 of 6
KCSQSVLYESVNKNSVA | DASTRES | QQYHRLPLS | GPLM_HC | 0.31 | 6 of 6
KLMQSVLYESRNKNSVA | NASYRES | QQYHRLPLS | GP_Gen | -0.20 | 6 of 6
HMSMLTLQGMRHRNSVA | QMTTRVN | QQYDRLPLA | En_Gen | 0.60 | 6 of 6
KLDMFIPSQWEWDASIA | GATLRPT | QDYARLPLS | En_Gibbs | 0.16 | 6 of 6
ALSQSMDMTSRNKNSVA | DLTLREN | QQYHRLPLS | En_HC | 0.22 | 6 of 6
KSSQSVLYDSRNKNSVA | NASTRES | QQYHRLPLS | Ctrl | 0.15 | 6 of 6
KLSGSWLYESRNKNSVA | NASQRES | QQYHRLPLS | GP_Gen | -0.05 | 6 of 6
KSSSSVLYEHRNENSVA | QASTRES | QQYHRLPLS | Ctrl | 0.30 | 6 of 6
KLSWSVLGMERAKNSVA | NASTRES | QQYHRLPLS | GP_Gibbs | 0.23 | 6 of 6
KSMQSTLYESRYKNSVA | WASTRES | QQYHRLPLP | Ctrl | not detected | 0 of 6
KLMGSVLYESRMKNAVA | GASQRES | QQYHRLPLS | GP_Gibbs | -0.35 | 6 of 6
KVIQSVLYESRNKNSVA | MASTRES | QQYHRLPLS | Ctrl | 0.86 | 6 of 6
MMSSLMGYESRNIQNVA | QTSTREE | QQYDRLPLI | En_Gen | 0.30 | 6 of 6
HLSPSVLYESRNKNSVA | DASTRES | QQYHRLPLS | GP_HC | -0.17 | 6 of 6
KLMQLGHYESRNANNVA | NASQREQ | QQYHRLPLS | GP_Gibbs | -0.31 | 6 of 6
RFSQTEQMGIRDYNSVA | NGSTYAT | QHYSRLPIS | En_Gibbs | 1.14 | 6 of 6
KFSQSPLYESRTKNAVA | NASTRES | QQYHRLPLS | GP_HC | -0.03 | 6 of 6
KVPQSVLYESRNKNSVA | NASQRES | QQYHRLPLS | GP_Gen | -0.19 | 6 of 6
KLVQFMNRGTHHTSNIA | DAANRID | QQYARLPLA | En_Gen | 0.66 | 6 of 6
KLSQSWLYESRNKMSVA | NASQRES | QQYHRLPLS | GP_Gen | -0.26 | 6 of 6
KQSMSVMMGSRNKNSVA | SASKREA | QQYHRLPLS | GP_Gibbs | 1.03 | 6 of 6
KWSQLVLGESRNKSSVA | NASTREE | QQYHRLPLS | GP_Gibbs | 1.22 | 6 of 6
KQEQGDLMESRNKNSVA | HASERES | QQYHRLPLS | GP_Gibbs | 0.03 | 6 of 6
KLSQFYRMESRNKNSVA | DNSTRES | QYYDRLPLS | En_HC | 0.98 | 6 of 6
KSSQSVLYESRNSNSVA | WASTRES | QQYGRLPLS | Ctrl | 2.16 | 6 of 6
KISQSVLHESRNKNSVA | GASTRES | QQYHRLPLS | Ctrl | 0.42 | 6 of 6
KMRVSALQGIYRSDSIA | STDIRVL | QQYHHLPLS | En_Gibbs | 0.84 | 6 of 6
KFSQSVLYESRTKNSVA | NASTRES | QQYFRLALS | Rand | 0.54 | 6 of 6
KLSQSFDYESRQKNSVA | NAQTRES | QQYHRLPLS | GP_Gibbs | -0.17 | 6 of 6
KLSQSELYESRNKNSVA | DASTRES | QQYHRLPLS | GP_Gen | -0.40 | 6 of 6
TIGQMFNGEQRNRNSVA | QASTRES | QSYDRLPLS | En_HC | 0.85 | 6 of 6
ISSQSVLDESRNDNSVA | DASTRES | QQYHRLPLS | GP_HC | 0.64 | 6 of 6
KSMQSVLYESTNKNSVA | WSSTRES | QQYHRLPLS | Ctrl | 3.30 | 3 of 6
KSSQSVLYESINKNSVA | QASTRES | QQYHRLPLS | Ctrl | -0.06 | 6 of 6
KSSQSVLTESRNHNSVA | YASTRES | QQYHILPLS | Ctrl | 1.53 | 6 of 6